Assay results reported in patent publication US20060246555A1, “Degradation of cyclic nitramines” (published 2006).
Values joined by “and” are separate entries in the source; they are usually repeats but may differ in a detail not shown here. Equal entries are not always repeated. Only a part of the results on these compounds is given; other tests are left out.

Protein sequences, listed by entry. Tags and fused reporters are not part of them.
UniProt P36858, whole entry: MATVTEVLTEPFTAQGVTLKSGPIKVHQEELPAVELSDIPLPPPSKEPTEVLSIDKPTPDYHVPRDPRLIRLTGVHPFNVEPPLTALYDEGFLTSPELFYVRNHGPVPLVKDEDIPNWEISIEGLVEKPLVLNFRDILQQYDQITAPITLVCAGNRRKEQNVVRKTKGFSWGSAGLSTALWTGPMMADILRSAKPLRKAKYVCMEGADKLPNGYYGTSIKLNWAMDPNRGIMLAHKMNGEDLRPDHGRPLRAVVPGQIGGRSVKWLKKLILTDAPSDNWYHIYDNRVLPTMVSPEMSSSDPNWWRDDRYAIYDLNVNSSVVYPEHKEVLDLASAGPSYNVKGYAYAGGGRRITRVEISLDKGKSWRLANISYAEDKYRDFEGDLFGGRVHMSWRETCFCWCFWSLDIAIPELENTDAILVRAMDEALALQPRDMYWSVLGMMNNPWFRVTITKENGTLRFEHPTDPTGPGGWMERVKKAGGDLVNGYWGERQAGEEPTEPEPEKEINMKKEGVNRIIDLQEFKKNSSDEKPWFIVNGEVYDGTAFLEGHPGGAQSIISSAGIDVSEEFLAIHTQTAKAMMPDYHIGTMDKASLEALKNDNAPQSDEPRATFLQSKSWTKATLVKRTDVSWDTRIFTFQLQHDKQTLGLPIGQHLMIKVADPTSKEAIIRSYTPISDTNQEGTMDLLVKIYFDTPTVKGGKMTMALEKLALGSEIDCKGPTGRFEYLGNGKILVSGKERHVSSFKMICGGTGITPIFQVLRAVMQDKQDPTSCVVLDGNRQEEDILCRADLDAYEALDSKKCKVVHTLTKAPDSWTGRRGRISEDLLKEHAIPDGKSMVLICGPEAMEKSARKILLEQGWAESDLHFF

How the values were obtained:
[1] = test system: Diaphorase (EC 1.8.1.4) from Clostridium kluyveri; assay: RDX biotransformation assay with diaphorase
[2] = cited from earlier work
[3] = target: Aspergillus niger NAD(P)H: Nitrate oxidoreductase (EC 1.6.6.2) (Aspergillus niger, UniProt P36858); assay: Nitrate reductase catalyzed RDX transformation
[4] = test system: Rhodococcus sp. strain DN22; assay: Aerobic degradation of RDX with Rhodococcus sp. strain DN22
[5] = Photolysis of RDX in aqueous solution at 350 nm
[6] = Alkaline hydrolysis of cyclic nitramines in aqueous solution; settings: for Normalized molar yield of 4-NDAB / Normalized molar yield of HCHO / Normalized molar yield of N2O / Normalized molar yield of NH4^+ / Normalized molar yield of NO2^−: pH 10, 30° C., moles of product per mole of reactant consumed; for C mass balance found in 4-NDAB (HNNO2CH2NHCHO, V) / C mass balance found in HCHO / C mass balance found in HCOOH / N mass balance found in 4-NDAB (HNNO2CH2NHCHO, V) / N mass balance found in N2O / N mass balance found in NH3 measured as NH4^+ / N mass balance found in NO2^−: pH 10, % of reacted nitramine; for HCOO^− detected / NH4^+ / NH3 detected: pH 10, hydrolyzed product of formamide
[7] = RDX transformation by diaphorase
[8] = RDX transformation, 150 minutes
[9] = RDX after 16 h of photolysis at 350 nm

O=[N+]([O-])N1CN([N+](=O)[O-])CN([N+](=O)[O-])C1
NADH consumed to biotransform 1.0 μmole of RDX [1]: 1.4 µmol
RDX transformation activity equivalent to 100% ([1]; FIG. 10, effect of oxygen experiment): 47 μmoles RDX transformed h^−1mg^−1 protein
RDX transformation activity equivalent to 100% ([1]; FIG. 11 and 12, FMN experiments, native enzyme): 41 μmoles RDX transformed h^−1mg^−1 protein
Total % mass recovery, carbon [1, 7]: 91% and 92%
Total % mass recovery, nitrogen [1, 7]: 92% and 91%
Concentration of Reactants/metabolites ([1]; RDX transformation, pH 7.0, 27° C., anaerobic, NADH): 78 µmol and 78.0 µmol
% Carbon recovery ([1]; of total carbon mass in the transformed RDX (78 μmole)): 100.0%
% Nitrogen recovery ([1]; of total nitrogen mass in the transformed RDX (78 μmole)): 100.0%
maximum water solubility [2]: ca. 50 ppm
Total % mass recovery, carbon [3, 8]: 96.13% and 96.14%
Total % mass recovery, nitrogen [3, 8]: 82.10%
Concentration of Reactants/metabolites ([3]; RDX transformation, after 150 minutes of reaction, pH 7.0, 30° C., anaerobic, NADPH): 86 µmol
% Carbon recovery ([3]; of total carbon mass in the transformed RDX (86 μmole)): 100%
% Nitrogen recovery ([3]; of total nitrogen mass in the transformed RDX (86 μmole)): 100%
C mass balance of RDX biodegradation [4]: 94%
N mass balance of RDX biodegradation [4]: 90%
RDX converted to dead end product 4-nitro-2,4-diaza-butanal (V) ([4]; aerobic): 64%
% mass balance, carbon [5, 9]: 93% and 93.1%
% mass balance, nitrogen [5, 9]: 73% and 72.8%
disappearance of RDX ([5]; after 16 h of photolysis): 0.46 µmol
C mass balance, % Recovered ([6]; pH 10): 97%
nitrogen thought to be still in nitramide ([6]; pH 10): 2.5%
rate of hydrolysis ([6]; pH 10): 0.00721 h⁻¹
Normalized molar yield of 4-NDAB [6]: 0.951 ± 0.005
Normalized molar yield of HCHO [6]: 0.939 ± 0.037
Normalized molar yield of N2O [6]: 0.770 ± 0.130
Normalized molar yield of NH4^+ [6]: 0.075 ± 0.032
Normalized molar yield of NO2^− [6]: 0.972 ± 0.056
C mass balance found in 4-NDAB (HNNO2CH2NHCHO, V) [6]: 63.4%
C mass balance found in HCHO [6]: 31.3%
C mass balance found in HCOOH [6]: 2.3%
N mass balance found in 4-NDAB (HNNO2CH2NHCHO, V) [6]: 47.6%
N mass balance found in N2O [6]: 25.6%
N mass balance found in NH3 measured as NH4^+ [6]: 1.3%
N mass balance found in NO2^− [6]: 16.2%
nitrogen calculated as being in the form of aqueous N2O ([6]; pH 10, Henry's Law): 0.3%
disappearance of RDX ([6]; pH 10, first three hours): 0.14 µmol
HCOO^− detected [6]: 0.18 µmol
NH4^+ / NH3 detected [6]: 0.20 µmol
extent to which the reaction had proceeded ([6]; t=316 h, pH 10): ca. 94%

O=NN1CN([N+](=O)[O-])CN([N+](=O)[O-])C1
C mass balance, % Recovered ([6]; pH 10): 87.8%
N mass balance, total of observed products ([6]; pH 10): 60.45%
rate of hydrolysis ([6]; pH 10): 0.0283 h⁻¹
Normalized molar yield of 4-NDAB [6]: 0.842 ± 0.032
Normalized molar yield of HCHO [6]: 0.800 ± 0.027
Normalized molar yield of N2O [6]: 0.008 ± 0.001
Normalized molar yield of NH4^+ [6]: 0.141 ± 0.035
Normalized molar yield of NO2^− [6]: 0.935 ± 0.005
C mass balance found in 4-NDAB (HNNO2CH2NHCHO, V) [6]: 56.1%
C mass balance found in HCHO [6]: 26.6%
C mass balance found in HCOOH [6]: 5.05%
N mass balance found in 4-NDAB (HNNO2CH2NHCHO, V) [6]: 42.1%
N mass balance found in N2O [6]: 0.14%
N mass balance found in NH3 measured as NH4^+ [6]: 2.35%
N mass balance found in NO2^− [6]: 15.6%
HCOO^− detected [6]: 0.35 µmol
NH4^+ / NH3 detected [6]: 0.33 µmol

O=[N+]([O-])N1CN([N+](=O)[O-])CN([N+](=O)[O-])CN([N+](=O)[O-])C1
maximum water solubility [2]: 5 ppm
C mass balance, % Recovered ([6]; pH 10): 90%
N mass balance, total of observed products ([6]; pH 10): 86%
Normalized molar yield of 4-NDAB [6]: 0.859 ± 0.016
Normalized molar yield of HCHO [6]: 1.82 ± 0.04
Normalized molar yield of N2O [6]: 1.48 ± 0.06
Normalized molar yield of NO2^− [6]: 1 and 1.15 ± 0.03
extent of reaction ([6]; pH 10, 21 days): ca. 5%
C mass balance found in 4-NDAB (HNNO2CH2NHCHO, V) [6]: 43.8%
C mass balance found in HCHO [6]: 46.2%
N mass balance found in 4-NDAB (HNNO2CH2NHCHO, V) [6]: 32.8%
N mass balance found in N2O [6]: 38.5%
N mass balance found in NO2^− [6]: 14.7%

2,4,6,8,10,12-hexanitro-2,4,6,8,10,12-hexaazaisowurtzitane
maximum water solubility [2]: 3.6 ppm
rate of hydrolysis ([6]; pH 10): 0.0109 h⁻¹
Normalized molar yield of 4-NDAB [6]: not formed
Normalized molar yield of HCHO [6]: not formed
Normalized molar yield of N2O [6]: 0.910 ± 0.100
Normalized molar yield of NH4^+ [6]: 0.793 ± 0.049
Normalized molar yield of NO2^− [6]: 2 and 1.91 ± 0.09
